# Binding of CDR-mutated scFvs to a peptide of the spike HR2 region

All variants were tested on one target, the spike HR2 peptide PDVDLGDISGINAS (SARS-CoV-2).

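The library (AAYL51) carries one to three amino acid substitutions per variant, with no insertions or deletions. The assay is AlphaSeq: two haploid yeast populations carry antibody and antigen on their surface. The frequency of each diploid, read from paired DNA barcodes, reflects how well the two displayed proteins bind. Each replicate has its own calibration line, from reference interactions of the BCL2 family. The assay was run in three technical replicates.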

Parent: Ab-91, a human scFv built as VL, the linker GGGGSGGGGSGGGGS, VH. Only the CDRs of the heavy chain vary.
VL: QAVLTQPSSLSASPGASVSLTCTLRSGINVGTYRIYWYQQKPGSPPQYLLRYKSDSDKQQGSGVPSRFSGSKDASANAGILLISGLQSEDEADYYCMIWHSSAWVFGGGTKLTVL
VH: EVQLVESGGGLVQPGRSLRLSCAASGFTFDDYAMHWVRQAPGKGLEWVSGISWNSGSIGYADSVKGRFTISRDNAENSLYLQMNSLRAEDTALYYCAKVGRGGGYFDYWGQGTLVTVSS

Substitutions are numbered in sequence along the VH above, starting at 1 (not Kabat).
Every variant below is changed at A33 of the VH (sequential numbering).
Values are log10 of the apparent Kd in nM; lower means stronger binding.
Averages over replicates are reported, and they cover detected replicates only.
A pair that was not seen in that replicate is written "nd"; this usually means weak binding, but a binder can also be missed.

- A33M G56L G59K: nd, nd, nd (controls 0 of 9)
- A33R S55P Y108C: nd, nd, nd (controls 1 of 9)
- F29G A33W R101K: nd, nd, nd (controls 1 of 9)
- A33H I51V S63T: 5.87, nd, nd (controls 4 of 9)
- A33L N54M V99L: 3.56, nd, nd (controls 0 of 9)
- A33F K65T F106M: nd, nd, nd (controls 0 of 9)
- A33W N54Q S63D: nd, nd, nd (controls 0 of 9)
- A33P G56A G104S: 4.54, 5.45, nd (mean 4.99; controls 7 of 9)
- T28E A33V V99E: nd, nd, nd (controls 2 of 9)
- D31I A33Q S57C: nd, nd, nd (controls 1 of 9)
- A33R G50M D107K: nd, nd, nd (controls 1 of 9)
- Y32I A33K I58T: nd, nd, nd (controls 0 of 9)
- G26T A33V G102D: nd, nd, 4.19 (controls 4 of 9)
- T28N A33K S57E: 5.77, nd, nd (controls 3 of 9)
- A33T: 4.66, 4.39, nd (mean 4.52; controls 5 of 9)
- A33D G56R D62P: nd, nd, nd (controls 0 of 9)
- A33N I58L F106M: nd, nd, nd (controls 0 of 9)
- A33H M34I G56Q: nd, nd, nd (controls 2 of 9)
- A33T I51E: 2.96, 2.46, nd (mean 2.71; controls 2 of 9)
- F27N D31V A33P: nd, nd, nd (controls 0 of 9)
- A33W G100Y R101G: nd, nd, nd (controls 1 of 9)
- G26P A33C G56C: nd, nd, nd (controls 0 of 9)
- D30I A33S W53Y: 0.67, 0.73, 0.08 (mean 0.49; controls 5 of 9)
- F27I A33H G59T: 5.71, 5.24, 3.48 (mean 4.81; controls 4 of 9)
- Y32L A33L G100D: nd, nd, nd (controls 0 of 9)
- A33F I51E W53I: 4.87, 4.71, nd (mean 4.79; controls 3 of 9)
- Y32D A33R S57H: 4.22, nd, nd (controls 0 of 9)
- G26W Y32W A33H: 4.50, nd, nd (controls 1 of 9)
- A33T M34R H35A: 4.70, 4.75, nd (mean 4.72; controls 4 of 9)
- A33F: nd, nd, 3.90 (controls 2 of 9)

The closing 2 entries, repeated:

| changes | log10 Kd, replicates | mean log10 Kd (nM) | control signals |
|---|---|---|---|
| A33T M34R H35A | 4.70, 4.75, nd | 4.72 | 4/9 |
| A33F | nd, nd, 3.90 | 3.90 | 2/9 |

Empty control strains, which show no peptide, gave a signal in 21% of pairings with library AAYL51; the median was 4.54 and 95% of these signals were weaker than 3.26. No background was subtracted. For each scFv, signals with the empty controls are counted beside the result.

Data: MIT Lincoln Laboratory AlphaSeq set, Engelhart et al. 2022, doi:10.1038/s41597-022-01779-4, as distributed in FLAb.